Measurements as given in patent US20220313698A1, “MODULATORS OF CYSTIC FIBROSIS TRANSMEMBRANE CONDUCTANCE REGULATOR” (Vertex Pharmaceuticals Incorporated, priority 2019, published 2022).

Amino acid sequences for entries named in this document (tags omitted).
UniProt P13569, whole entry: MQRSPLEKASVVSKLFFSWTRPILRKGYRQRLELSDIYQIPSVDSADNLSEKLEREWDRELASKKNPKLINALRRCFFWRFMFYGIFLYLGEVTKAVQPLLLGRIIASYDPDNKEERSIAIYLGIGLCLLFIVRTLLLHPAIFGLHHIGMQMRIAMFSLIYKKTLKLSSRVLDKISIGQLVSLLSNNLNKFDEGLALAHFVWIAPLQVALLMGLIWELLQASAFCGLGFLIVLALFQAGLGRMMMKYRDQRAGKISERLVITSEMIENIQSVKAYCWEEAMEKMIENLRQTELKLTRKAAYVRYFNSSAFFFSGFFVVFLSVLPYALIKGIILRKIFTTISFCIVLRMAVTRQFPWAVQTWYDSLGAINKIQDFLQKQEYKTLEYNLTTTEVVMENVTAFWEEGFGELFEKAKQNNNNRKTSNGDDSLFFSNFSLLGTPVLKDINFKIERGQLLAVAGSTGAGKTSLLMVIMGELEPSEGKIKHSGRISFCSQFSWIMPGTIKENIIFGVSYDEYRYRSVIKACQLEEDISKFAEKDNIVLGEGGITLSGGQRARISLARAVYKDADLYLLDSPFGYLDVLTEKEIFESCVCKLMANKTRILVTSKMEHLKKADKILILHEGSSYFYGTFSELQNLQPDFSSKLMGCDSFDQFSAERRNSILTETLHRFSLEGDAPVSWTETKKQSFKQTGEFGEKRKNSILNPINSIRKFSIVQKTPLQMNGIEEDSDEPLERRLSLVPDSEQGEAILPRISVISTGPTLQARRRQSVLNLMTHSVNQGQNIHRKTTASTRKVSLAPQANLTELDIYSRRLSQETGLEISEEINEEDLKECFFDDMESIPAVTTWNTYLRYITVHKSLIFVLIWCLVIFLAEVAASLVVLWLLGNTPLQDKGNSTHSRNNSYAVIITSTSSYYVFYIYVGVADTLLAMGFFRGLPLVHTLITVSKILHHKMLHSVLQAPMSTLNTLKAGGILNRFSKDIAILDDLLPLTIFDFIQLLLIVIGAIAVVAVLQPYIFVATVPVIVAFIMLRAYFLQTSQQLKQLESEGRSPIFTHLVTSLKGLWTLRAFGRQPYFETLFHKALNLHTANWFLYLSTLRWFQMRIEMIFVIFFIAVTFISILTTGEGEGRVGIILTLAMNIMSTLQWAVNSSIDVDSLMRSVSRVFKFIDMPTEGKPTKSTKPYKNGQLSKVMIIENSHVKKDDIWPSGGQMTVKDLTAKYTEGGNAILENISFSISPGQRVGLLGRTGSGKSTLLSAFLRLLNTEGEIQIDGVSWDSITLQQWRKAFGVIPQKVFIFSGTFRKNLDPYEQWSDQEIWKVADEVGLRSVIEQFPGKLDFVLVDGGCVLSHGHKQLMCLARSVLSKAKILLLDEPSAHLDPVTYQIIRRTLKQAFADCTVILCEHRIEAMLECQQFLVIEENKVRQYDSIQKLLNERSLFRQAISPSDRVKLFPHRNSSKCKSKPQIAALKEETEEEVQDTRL

Target: CFTR-mediated chloride transport (Homo sapiens, UniProt P13569)
Assay: Corrector Assay A - membrane potential dye assay (enteroid cells)
Settings: for Corrector Assay A % activity: % of chloride transport of triple combination control (1 μM (14S)-dispiro macrocycle + 3 μM tezacaftor + 300 nM ivacaftor); for EC50: read-out: Corrector Assay A EC50, human intestinal enteroid cells, 18-24 h incubation, acute 10 μM forskolin + 300 nM ivacaftor

Corrector Assay A % activity	EC50 [nM]	SMILES
+++ (+++ is >60%)	< 1000	CC1(C)C[C@@H]2CC[C@H](c3ccccn3)Nc3cccc(n3)S(=O)(=O)NC(=O)c3ccc(-n4ccc(OCCC(F)(F)F)n4)nc3N1C2
+++ (+++ is >60%)	< 1000	CC1(C)C[C@@H]2CC[C@@H](c3ccccn3)Nc3cccc(n3)S(=O)(=O)NC(=O)c3ccc(C4CC4)nc3N1C2
++ (++ is 30-60%)	< 1000	CC(C)(C)CCOc1ccn(-c2ccc3c(n2)N2C[C@@H](CC[C@@H](c4ccccn4)Nc4cccc(n4)S(=O)(=O)NC3=O)CC2(C)C)n1
